# From PMC6130577, “Rational screening of peroxisome proliferator-activated receptor-γ agonists from natural products: potential therapeutics for heart failure” (Pharmaceutical Biology, 2016)
# Chains of the proteins cited; added tags and fusions are not shown. Residues count along the entry.
# UniProt P37231, 238-503 limits assumed: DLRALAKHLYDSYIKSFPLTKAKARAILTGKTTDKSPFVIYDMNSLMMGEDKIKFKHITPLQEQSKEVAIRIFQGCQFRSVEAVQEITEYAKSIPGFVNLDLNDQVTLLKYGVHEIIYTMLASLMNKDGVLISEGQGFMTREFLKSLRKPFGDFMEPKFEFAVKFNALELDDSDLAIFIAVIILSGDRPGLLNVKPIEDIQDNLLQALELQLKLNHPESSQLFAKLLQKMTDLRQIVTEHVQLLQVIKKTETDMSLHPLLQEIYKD
# Molecular target: T1, human PPARγ (hPPARγ) (Homo sapiens, UniProt P37231)
# T1 construct: expressed in transfected cells; host or cells: CV-1 cells
# Assay: Transactivation reporter assay (chimeric GAL4-PPAR reporter-gene assay in CV-1 cells)
# Assay type: cell-based
# Details: percentage of agonistic potency relative to full agonist Pioglitazone at their respective EC50 concentration
# Experimental: Briefly, chimeric receptor expression plasmid pcDNA3-hPPARγ/GAL4 was prepared by inserting the yeast GAL4 transcription factor DNA-binding domain adjacent to the hPPARγ LBD domain. The reporter plasmid, p(UAS)5-tk-luc, was generated by inserting five copies of the GAL4 response element upstream of the herpesvirus minimal thymidine kinase promoter and the luciferase reporter gene. The chimeric receptor expression plasmid and reporter plasmid were cotransfected into CV-1 cells. The transfected cells were cultured with or without each tested compound for 48 h and then steady-state luminescence intensity was measured with a microplate luminometer (Turner Biosystems). All compounds were purchased from Sigma-Aldrich and ChemPartner, and dissolved in dimethyl sulfoxide (<0.1% v/v). Each assay was carried out in triplicate.
compound,measurement,value
CN(CCOc1ccc(CC2SC(=O)NC2=O)cc1)c1ccccn1 (stereo not shown) [Rosiglitazone],Agonistic intensity,124%
